{
  "source": "ChEMBL document CHEMBL1139869",
  "about": "“Design and synthesis of novel quinolinone-3-aminoamides and their alpha-lipoic acid adducts as antioxidant and anti-inflammatory agents” (2007)",
  "key": {"[1]": {"test": "Antioxidant activity assessed as DPPH reducing activity at 0.1 mM after 60 mins", "assay_type": "functional", "design": "scale not given: the % may be the effect or the level left", "in_short": "(§1)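 DPPH in absolute ethanol was mixed with an equal volume of compound in ethanol (0.1 or 0.5 mM); ethanol served as control. Absorbance at 517 nm was read after 20 and 60 min at room temperature. At least triplicate.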"}, "[2]": {"test": "Antioxidant activity assessed as DPPH reducing activity at 0.1 mM after 20 mins", "assay_type": "functional", "design": "scale not given: the % may be the effect or the level left", "in_short": "as §1"}},
  "data": [
    {"molecule": "CC(Cc1ccc(O)c(O)c1)C(C)Cc1ccc(O)c(O)c1", "note": "(configuration not stated)", "values": [
      {"measurement": "Activity", "setting": "[1]", "result": 82.6, "unit": "%"},
      {"measurement": "Activity", "setting": "[2]", "result": 81, "unit": "%"}
    ]}
  ]
}
